Measured values published in US10857236B2, “Sustained release nanocomposite, a process for producing the same and use thereof” (SZEGEDI TUDOMÁNYEGYETEM, priority 2015, dated 2020).

How the values were obtained:
[1] = dynamic light scattering: hydrodynamic diameter and zeta potential (HORIBA SZ-100); format: physicochemical
Method: The sizes of the protein (approx. 4 nm), the KYNA, the PAH (approx. 9 nm) the BSA/KYNA (approx. 20 nm), furthermore the BSA/KYNA/PAH (approx. 100 nm) composite were determined by dynamic lights scattering measurements (DLS). The size of the composites prepared at neutral pH falling into the nanometer range ensures the crossing of the blood-brain barrier by the active ingredients (FIG. 3).
(§1) The hydrodynamic diameters, furthermore the zeta potential were determined by a HORIBA SZ-100 type dynamic light scattering measuring device. The SAXS measurements (Philips PW-1830) were applied for the investigation of the internal structure of the core and the composites. Considering that this latter method investigates the size range corresponding to the reciprocal of this scattering vector, this can not be identical with the hydrodynamic diameters given by the light scattering measurements. The diameters determined by SAXS measurements thus relate only to the size of the protein (BSA).

[2] = SAXS measurement of the internal structure of the core (Philips PW-1830); format: physicochemical
Method: as §1

## bovine serum albumin [BSA]
[1]
  DLS ζ (zeta potential): −1.1 mV
[1]; approx., neutral pH
  size determined by dynamic light scattering measurements (DLS): approx. 4 nm
[1]; dynamic light scattering
  DLS d (hydrodynamic diameter): 3.8 nm
[2]
  SAXS D (size of the internal structure of the core): 8 nm
